Experimental data from patent publication US20140348844A1 (UCB, published 2014).

Sequences of proteins named here, by UniProt entry; tags and fusion partners are left off. Residues count along the entry.
UniProt P18177, 1833-2366: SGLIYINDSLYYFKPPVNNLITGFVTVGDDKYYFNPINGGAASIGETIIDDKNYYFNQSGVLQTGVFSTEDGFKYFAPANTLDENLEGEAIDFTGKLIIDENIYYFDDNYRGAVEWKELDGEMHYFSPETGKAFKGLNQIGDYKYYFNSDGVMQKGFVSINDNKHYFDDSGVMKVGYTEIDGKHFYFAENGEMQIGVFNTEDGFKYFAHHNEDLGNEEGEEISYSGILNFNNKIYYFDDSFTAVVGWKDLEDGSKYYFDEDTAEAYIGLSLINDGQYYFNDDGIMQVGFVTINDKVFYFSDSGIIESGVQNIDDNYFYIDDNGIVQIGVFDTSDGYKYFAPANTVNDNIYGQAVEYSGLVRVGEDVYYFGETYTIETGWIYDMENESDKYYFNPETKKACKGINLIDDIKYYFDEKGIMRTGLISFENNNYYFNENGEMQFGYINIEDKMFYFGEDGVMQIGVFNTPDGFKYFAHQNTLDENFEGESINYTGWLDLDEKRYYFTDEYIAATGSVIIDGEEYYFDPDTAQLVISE

B1: CA164_1151.g4 (antibody, V domains shown)
VH: EVQLQESGPGLVKPSETLSLTCTVSGFSLTSYYVHWVRQPPGKGLEWMGCIRTGGNTEYQSEFKSRVTISRDTSKNQVSLKLSSVTAADTAVYYCARGNYGFAYWGQGTLVTVS
VL: AIQMTQSPSSLSASVGDRVTITCKASQNVGNNVAWYQHKPGKAPKLLIYYASNRFTGVPSRFTGGGYGTDFTLTISSLQPEDFATYYCQRVYQSTWTFGQGTKVEIK
notes: also called CA1151; CA1151.g4
B2: CA164_1099.g2 (antibody, V domains shown)
VH: EVQLQESGPGLVKPSETLSLTCTVSGFSLQSYTISWVRQPPGKGLEWIAAISGGGSTYYNLPLKSRVTISRDTSKSQVSLKLSSVTAADTAVYYCTRPRWYPRSYFDYWGRGTLVTVS
VL: DVQLTQSPSFLSASVGDRVTITCKASKSISNHLAWYQEKPGKANKLLIHSGSTLQSGTPSRFSGSGSGTEFTLTISSLQPEDFATYYCQQYDEYPYTFGQGTRLEIKR
notes: also called CA1099

Target: T1, TcdB binding (TcdB1234) (Clostridium difficile ribotype 027, UniProt P18177 1833-2366)
T1 construct: also called CROPs1,2,3,4 of Toxin B
Experiment: SPR BIAcore 3000, Mab captured on anti-human Fc, TcdB1234 in solution, purified Mab 3 point titration

| Binder | Kd |
| --- | --- |
| B1 | 0.551 nM |
| B2 | 0.031 nM |
